Laboratory results taken from ChEMBL document CHEMBL2057129, “Evaluation of synthetic FK506 analogues as ligands for the FK506-binding proteins 51 and 52” (J Med Chem, 2012).

Biological target: T1, Peptidyl-prolyl cis-trans isomerase FKBP5 (Homo sapiens, UniProt Q13451)
T1 sequence (Q13451 whole entry): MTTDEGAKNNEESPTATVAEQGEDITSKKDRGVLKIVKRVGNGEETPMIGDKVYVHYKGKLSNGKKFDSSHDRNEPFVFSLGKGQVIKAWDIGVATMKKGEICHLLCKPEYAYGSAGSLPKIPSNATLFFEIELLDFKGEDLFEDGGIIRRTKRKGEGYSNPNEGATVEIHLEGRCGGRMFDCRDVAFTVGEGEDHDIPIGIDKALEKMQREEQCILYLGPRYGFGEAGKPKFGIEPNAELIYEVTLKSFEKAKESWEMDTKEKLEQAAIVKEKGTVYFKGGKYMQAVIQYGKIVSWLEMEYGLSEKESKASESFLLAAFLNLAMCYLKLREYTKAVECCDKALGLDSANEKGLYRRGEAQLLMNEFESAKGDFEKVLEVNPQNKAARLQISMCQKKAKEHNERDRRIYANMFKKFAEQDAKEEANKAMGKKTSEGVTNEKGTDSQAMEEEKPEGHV
Assay: Binding affinity to FKBP51 FK1 domain by fluorescence polarization assay

- IC50: 8.36 µM
SMILES: CCC(C)(C)C(=O)C(=O)N1CCCC[C@H]1C(=O)O[C@H](CCc1ccc(OC)c(OC)c1)c1cccc(OCC(=O)O)c1
